# Literature values in US20120010161A1, “NOVEL AZAPEPTIDE OR AZAPEPTIDOMIMETIC COMPOUNDS INHIBITING BCRP AND/OR P-GP” (CENTRE NATIONAL DE LA RECHERCHE SCIENTIFIQUE, priority 2009, published 2012).
# Amino acid sequences for entries named in this document (tags omitted).
# UniProt P08183, whole entry: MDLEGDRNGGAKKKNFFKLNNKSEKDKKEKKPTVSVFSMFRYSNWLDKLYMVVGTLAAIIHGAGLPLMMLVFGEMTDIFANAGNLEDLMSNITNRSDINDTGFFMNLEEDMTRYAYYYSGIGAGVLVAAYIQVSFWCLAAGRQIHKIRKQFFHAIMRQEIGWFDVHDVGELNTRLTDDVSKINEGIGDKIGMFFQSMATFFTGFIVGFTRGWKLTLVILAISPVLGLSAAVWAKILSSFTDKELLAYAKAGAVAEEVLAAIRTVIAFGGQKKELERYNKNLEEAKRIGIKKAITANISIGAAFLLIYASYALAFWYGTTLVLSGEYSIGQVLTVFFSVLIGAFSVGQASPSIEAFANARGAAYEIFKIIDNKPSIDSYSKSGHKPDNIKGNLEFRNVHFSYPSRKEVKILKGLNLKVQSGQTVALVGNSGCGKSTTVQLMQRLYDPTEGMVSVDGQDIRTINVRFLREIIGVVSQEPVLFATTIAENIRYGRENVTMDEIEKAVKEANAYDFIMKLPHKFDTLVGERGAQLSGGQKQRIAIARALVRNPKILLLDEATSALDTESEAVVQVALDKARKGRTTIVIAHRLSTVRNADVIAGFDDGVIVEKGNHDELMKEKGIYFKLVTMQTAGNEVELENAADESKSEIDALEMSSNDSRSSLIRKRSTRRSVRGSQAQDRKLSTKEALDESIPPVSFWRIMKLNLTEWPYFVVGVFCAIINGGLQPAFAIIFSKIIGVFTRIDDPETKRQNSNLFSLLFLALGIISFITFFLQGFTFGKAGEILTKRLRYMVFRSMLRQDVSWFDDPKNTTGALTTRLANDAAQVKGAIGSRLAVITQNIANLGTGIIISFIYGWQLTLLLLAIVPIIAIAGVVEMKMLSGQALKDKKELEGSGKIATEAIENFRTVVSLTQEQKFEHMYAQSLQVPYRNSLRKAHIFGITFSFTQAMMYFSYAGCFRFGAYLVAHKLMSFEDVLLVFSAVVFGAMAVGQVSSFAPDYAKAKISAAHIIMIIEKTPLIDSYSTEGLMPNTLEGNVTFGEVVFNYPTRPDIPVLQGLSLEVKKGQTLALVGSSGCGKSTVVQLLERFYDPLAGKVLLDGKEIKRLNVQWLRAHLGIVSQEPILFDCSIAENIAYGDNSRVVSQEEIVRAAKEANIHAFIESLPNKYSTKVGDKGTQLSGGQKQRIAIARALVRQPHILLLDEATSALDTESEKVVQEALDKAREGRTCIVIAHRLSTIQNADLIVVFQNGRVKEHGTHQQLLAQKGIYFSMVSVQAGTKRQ
# Molecular target: ABCB1 (Homo sapiens, UniProt P08183)
# Conditions: cited from earlier work
# Note: key: the inhibitor is active (+); it is inactive (−); the effect is unknown (?).
smiles,measurement,value
"O[C@@H](COc1cccc2ncccc12)CN1CCN([C@@H]2c3ccccc3[C@@H]3[C@H](c4ccccc42)C3(F)F)CC1 [Ly335979, zosuquidar]",active or inactive on ABCB1,+
